Data as given in ChEMBL document CHEMBL3352502, “A dual inhibitor of matrix metalloproteinases and a disintegrin and metalloproteinases, [¹⁸F]FB-ML5, as a molecular probe for non-invasive MMP/ADAM-targeted imaging” (Bioorg Med Chem, 2015).

Columns and labels:
[1] = Drug uptake in HT1080 cells xenografted mouse assessed as tumor to muscle ratio after 90 mins; assay type: ADME, cell-based, HT-1080; conditions: in vivo, 1.5 h
[2] = Drug uptake in HT1080 cells xenografted mouse assessed as tumor to muscle ratio after 90 mins in presence of non-radioactive ML5; assay type: ADME, cell-based, HT-1080; conditions: in vivo, 1.5 h
[3] = Drug uptake in HT1080 cells xenografted mouse assessed as bone to muscle ratio after 90 mins; assay type: ADME, cell-based, HT-1080; conditions: in vivo, 1.5 h
[4] = Drug uptake in HT1080 cells xenografted mouse assessed as bone to muscle ratio after 90 mins in presence of non-radioactive ML5; assay type: ADME, cell-based, HT-1080; conditions: in vivo, 1.5 h
[5] = Drug uptake in HT1080 cells xenografted mouse assessed as heart to muscle ratio after 90 mins; assay type: ADME, cell-based, HT-1080; conditions: in vivo, 1.5 h
[6] = Drug uptake in HT1080 cells xenografted mouse assessed as heart to muscle ratio after 90 mins in presence of non-radioactive ML5; assay type: ADME, cell-based, HT-1080; conditions: in vivo, 1.5 h
Intestine = assay: Drug uptake in HT1080 cells xenografted mouse assessed as large intestine to muscle ratio after 90 mins; assay type: ADME, cell-based, HT-1080; conditions: in vivo, 1.5 h
[7] = Drug uptake in HT1080 cells xenografted mouse assessed as large intestine to muscle ratio after 90 mins in presence of non-radioactive ML5; assay type: ADME, cell-based, HT-1080; conditions: in vivo, 1.5 h
[8] = Drug uptake in HT1080 cells xenografted mouse assessed as lung to muscle ratio after 90 mins; assay type: ADME, cell-based, HT-1080; conditions: in vivo, 1.5 h
[9] = Drug uptake in HT1080 cells xenografted mouse assessed as lung to muscle ratio after 90 mins in presence of non-radioactive ML5; assay type: ADME, cell-based, HT-1080; conditions: in vivo, 1.5 h
Plasma (Homo sapiens) = assay: Metabolic stability in human plasma assessed as radioactivity at 3 hrs

- Ratio [1]: 3.035
- Ratio [2]: 1.084
- Ratio [3]: 0.769
- Ratio [4]: 0.478
- Ratio [5]: 2.069
- Ratio [6]: 1.178
- Ratio (Intestine): 33.065
- Ratio [7]: 81.219
- Ratio [8]: 4.616
- Ratio [9]: 2.897
- Stability (Plasma (Homo sapiens)): 99%
Compound: CC(C)C[C@H](CC(=O)NO)C(=O)N[C@@H](Cc1ccccc1)C(=O)N[C@@H](CCCCNC(=O)c1ccc([18F])cc1)C(N)=O
